Source: patent US20240391945A1, “NUCLEIC ACID SYNTHESIS METHOD USING SEGMENT-TYPE AMIDITE” (NITTO DENKO CORPORATION, priority 2020, published 2024)

Test: pKa values in water of the activators
Type: physicochemical

FC(F)(F)c1cc(-c2nn[nH]n2)cc(C(F)(F)F)c1
pKa in H2O: 3.4
